From patent publication US11400106B2, “Methods for inhibiting microbe growth” (priority 2018, dated 2022)

How the values were obtained:
S. aureus = S. aureus (Newman strain) (MSSA)

Question: `CC[C@H](C)[C@H](N)C(=O)N[C@@H](CC(C)C)C(=O)N1CCC[C@H]1C(=O)N[C@@H](Cc1c[nH]c2ccccc12)C(=O)N[C@@H](CCCCN)C(=O)N[C@@H](Cc1c[nH]c2ccccc12)C(=O)N1CCC[C@H]1C(=O)N[C@@H](Cc1c[nH]c2ccccc12)C(=O)N[C@@H](Cc1c[nH]c2ccccc12)C(=O)N1CCC[C@H]1C(=O)N[C@@H](Cc1c[nH]c2ccccc12)C(=O)N[C@@H](CCCNC(=N)N)C(=O)N[C@@H](CCCNC(=N)N)C(N)=O` [Indolicidin] was tested. Which “MIC in MHB” value (S. aureus) did it give?
Answer: 128 mg/L (≈ 67.1 µM)

Question: What about the “MIC in MHB + 25 mM bicarbonate” value (S. aureus) of the same compound?
Answer: 8 mg/L

Question: What about the “enhancement of antimicrobial activity in the presence of bicarbonate” value (E. coli) of the same compound?
Answer: 128 fold

Converted amounts (≈) assume the structure as drawn.
